EC50 data for one substance are collected here from patent publication US12564641B2, “Eribulin antibody-drug conjugates and methods of use” (EISAI R&D MANAGEMENT CO., LTD., priority 2019, dated 2026).

Like-named read-outs stand apart in the source and are kept apart here.

One data set has as its system A431 cells. Nature of the data set: In vitro cytotoxicity analysis (Crystal Violet), A431. The procedure: (§1) Plates were read at 570 nm. Data was analyzed using GraphPad Prism 6.
(§2) All ADCs were purified and characterized using SEC-HPLC for aggregation analysis, HIC-HPLC for DAR analysis, and cell-based assay with A431-A3 (MSLN^hi), A431 (MSLN^lo), and OVCAR3 (MSLN^hi) cell lines.

The subject of another data set is OVCAR3 cells. Description: In vitro cytotoxicity analysis (Crystal Violet), OVCAR3. How it is done: as §1, §2
The subject of the next data set is HEC-251 cells. Nature of the data set: In vitro cytotoxicity analysis (Crystal Violet), HEC-251. In kind it is cell-based, human. The procedure:
as §1

The test system of data set [1] is A3 (A431 stably transfected with human mesothelin) cells. Description: In vitro cytotoxicity analysis (Crystal Violet), A3. It is filed as cell-based. The procedure:
as §1

For the next data set, the system named is H226 cells. Nature of the data set: In vitro cytotoxicity analysis (Crystal Violet), H226. In kind it is cell-based, human. How it is done:
as §1

cryptophycin: the concentration for a half-maximal effect (EC50) in the data set with A431 cells (read-out: Cell-Based Cytotoxicity Assay EC50 (nM) A431, Table 19, payloads) was 0.8 nM; in the data set on A431 cells (read-out: Cell-Based Cytotoxicity Assay, EC50 (nM) A431, Table 18, 5 days) it was 0.8 nM; in the data set with OVCAR3 cells (read-out: Cell-Based Cytotoxicity Assay EC50 (nM) OVCAR3, Table 19, payloads) it was 0.24 nM; in the data set with OVCAR3 cells (read-out: Cell-Based Cytotoxicity Assay, EC50 (nM) OVCAR3, Table 18, 5 days) it was 0.24 nM; in the data set with HEC-251 cells (Table 18, 5 days, read-out: Cell-Based Cytotoxicity Assay, EC50 (nM) HEC-251) it was 0.43 nM; with HEC-251 cells (Table 19, payloads, read-out: Cell-Based Cytotoxicity Assay EC50 (nM) HEC-251), 0.43 nM. Further, the 50% effective concentration (EC50) in data set [1] (Table 18, 5 days, read-out: Cell-Based Cytotoxicity Assay, EC50 (nM) A3) came out at 1.01 nM; in data set [1] (Table 19, payloads, read-out: Cell-Based Cytotoxicity Assay EC50 (nM) A3), 1.01 nM; with H226 cells (Table 18, 5 days, read-out: Cell-Based Cytotoxicity Assay, EC50 (nM) H226) it was 1.94 nM; in the data set with H226 cells (Table 19, payloads, read-out: Cell-Based Cytotoxicity Assay EC50 (nM) H226), 1.94 nM.
